In patent publication US20260382640A1, “USES OF FARNESOID X RECEPTOR AGONISTS” (published 2026):

Assays:
liver = experiment: Liver histology (H&E, picrosirius red): steatosis and fibrosis; details: in words; for fibrosis (Pico Sirius Red): 30 mpk, no fibrosis at baseline or in vehicle group
Experimental: (§1) Dose Route and timing: Oral Gavage (Group 2-7) Once Daily (Day 1-14). The first day of dosing was designated as Day 1 The dose formulations were stirred continuously during dosing. The doses were given using a syringe with attached gavage cannula.
The liver and small intestine collected from all animals in Groups 1-7 (Main Study) were fixed in 10% neutral buffered formalin for 24-48 hours and transferred to 70% EtOH, stored under ambient conditions and transferred to the histopathology lab at Testing Facility.
Formalin fixed liver tissues were trimmed to slides and stained with H&E and picrosirius red stains. Slides were scored by Charles River board certified veterinarian pathologists.

[1] = test system: mouse model of alcoholic steatohepatitis; experiment: Survival in mouse model of alcoholic steatohepatitis (Lieber-DeCarli ethanol diet); details: for % Alive: Day 1-14, includes animals for PK; for survival: superior to the other two compounds
Description: (§2) The objective of this study was to assess efficacy of the test articles obeticholic acid (OCA), Compound 1 and Compound 2 on liver and intestinal pathology in a mouse model of alcoholic steatohepatitis.
(§3) • Species: Mouse • Strain: C57BL/6J (JAX #000664) • Condition: Purpose-bred, naïve • Source: Jackson Laboratories • Number of Females: 138 (119 on study+19 spares) • Target Age at the 10 weeks • Initiation of Study:
Diet: 5CR4 chow until Day −26; Lieber-DeCarli liquid diet Days-28 to Day 15. Upon arrival at the Testing Facility, all animals were placed on PMI Nutrition International Certified Rodent Chow No. 5CR4 ad libitum. During the chow diet phase (until Day −26), the diet in meal form may be provided to individual animals as warranted by clinical signs (e.g., broken/damaged incisors or other health changes).
On Day −26, all animals received 50 mL ethanol diet (1% v/v ethanol). The percentage of alcohol in the liquid diet was increased by 1% v/v every day until reaching 5% (v/v) on day −22 and is maintained at 5% v/v until the end of the study.
as §1

[2] = test system: mouse model of alcoholic steatohepatitis; experiment: Plasma/serum clinical chemistry (ALP, bilirubin, endotoxin, bile acids) in mouse alcoholic liver disease study; details: vs vehicle treated ALD mice, FIG. 2
Description: as §2, §3, §1
Terminal plasma and tissue samples were gathered. Plasma was analyzed for TG, TC, ALT, AST, ALP, FGF15 (LCMS), TBIL, and endotoxin.

Row | Compound | fibrosis (Pico Sirius Red) (liver) | % Alive ([1]; 10 mg/kg PO QD) [%] | survival ([1]; 10 mg/kg, in words) | % Alive ([1]; 30 mg/kg PO QD) [%] | survival ([1]; 30 mg/kg, in words) | survival versus OCA ([1]; compared with OCA, in words) | serum bile acids ([2]; 10 mg/kg (lower of both doses)) | serum bile acids ([2]; 30 mg/kg (high dose)) | steatosis (graded 1-5 by a pathologist) (liver; 10 mpk)
1 | CC[C@H]1[C@@H](O)[C@@H]2[C@H](CC[C@]3(C)[C@@H]([C@H](C)CCC(=O)O)CC[C@@H]23)[C@@]2(C)CC[C@@H](O)C[C@@H]12 | minimal increase |  |  |  |  |  |  |  | 
2 | CC[C@H]1[C@@H](O)C2C3CC[C@H]([C@H](C)CCC(=O)O)[C@@]3(C)C[C@H](O)C2[C@@]2(C)CC[C@@H](O)C[C@@H]12 (stereo partly shown) | minimal increase | 79 | greatly improved survival | 68 | greatly improved survival | improved survival better than OCA | significantly lowered | significantly lowered | close to statistical significance
